The numbers were not newly measured in patent US20030013684A1, “Agricultural composition” (priority 2001, published 2003), which cites them from elsewhere.

The structures appear in SMILES notation.

For this series the following is noted: cited from earlier work.

Regarding `COc1cc(OC)nc(NC(=O)NS(=O)(=O)c2ncccc2C(=O)N(C)C)n1` [nicosulfron], the water solubility is given as 12200 ppm. In the case of `O=C1CCc2cccc3c2N1CC3` [pyroquirone], the water solubility is 4000 ppm.
